Measured values from ChEMBL document CHEMBL1131420, “Synthesis and biological properties of new 2beta-alkyl- and 2beta-aryl-3-(substituted phenyl)tropane derivatives: stereochemical effect of C-3 on affinity and selectivity for neuronal dopamine and serotonin transporters” (J Med Chem, 1998).

Chains of the proteins cited; added tags and fusions are not shown.
UniProt P31652, whole entry: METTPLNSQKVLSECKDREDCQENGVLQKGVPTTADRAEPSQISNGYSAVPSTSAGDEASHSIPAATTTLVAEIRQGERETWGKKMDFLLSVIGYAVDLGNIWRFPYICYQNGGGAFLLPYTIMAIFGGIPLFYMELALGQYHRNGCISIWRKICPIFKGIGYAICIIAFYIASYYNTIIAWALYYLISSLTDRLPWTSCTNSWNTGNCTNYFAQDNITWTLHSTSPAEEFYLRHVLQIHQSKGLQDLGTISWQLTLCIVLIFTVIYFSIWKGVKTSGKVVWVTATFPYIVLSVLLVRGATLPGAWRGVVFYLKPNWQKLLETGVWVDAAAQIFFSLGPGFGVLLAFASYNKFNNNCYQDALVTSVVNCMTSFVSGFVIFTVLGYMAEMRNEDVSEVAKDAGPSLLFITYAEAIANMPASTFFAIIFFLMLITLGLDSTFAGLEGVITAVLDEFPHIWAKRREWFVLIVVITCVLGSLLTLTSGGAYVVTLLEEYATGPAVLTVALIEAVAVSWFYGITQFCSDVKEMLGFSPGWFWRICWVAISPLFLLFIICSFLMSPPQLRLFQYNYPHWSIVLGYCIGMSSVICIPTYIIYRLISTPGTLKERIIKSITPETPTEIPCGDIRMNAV

Key:
[1] = target: T1, Sodium-dependent serotonin transporter (Rattus norvegicus, UniProt P31652); experiment: Inhibitory activity on dopamine and serotonin transporters in striated membranes using [3H]- paroxetine; assay type: cell membranes
[2] = target: T1, Sodium-dependent serotonin transporter; experiment: Inhibitory activity against Serotonin transporter was determined for [3H]5-HT (serotonin) uptake by striated synaptosomes; assay type: subcellular, Brain
[3] = target: T1, Sodium-dependent serotonin transporter; experiment: Binding affinity for Serotonin transporter was determined by [3H]5-HT (serotonin) uptake by striated synaptosomes; assay type: subcellular, Brain
[4] = target: T1, Sodium-dependent serotonin transporter; experiment: Binding affinity on dopamine and serotonin transporters in striated membranes using [3H]- paroxetine; assay type: cell membranes

## COC(=O)[C@H]1C(c2ccccc2)C[C@H]2CCC1N2C (stereo not given in full)
[1]
  IC50: 2710 nM
[2]
  IC50: 204 nM
[3]
  Ki: 186 nM
[4]
  Ki: 135 nM

## COC(=O)[C@@H]1C2CC[C@@H](C[C@@H]1OC(=O)c1ccccc1)N2C (single isomer, unassigned) [COCAINE]
[3]
  Ki: 155 nM
